Ratio data for one molecule are collected here from ChEMBL document CHEMBL4311942, “Design of Trp-Rich Dodecapeptides with Broad-Spectrum Antimicrobial Potency and Membrane-Disruptive Mechanism” (J Med Chem, 2019).

A short description of this test: Resistance index, ratio of MIC for antibacterial activity against ciprofloxacin-resistant Escherichia coli to MIC for Escherichia coli ATCC 25922 incubated for 18 to 24 hrs by broth microdilution method. The test is classed as functional. (In general: Broth dilution looks for growth in wells or tubes with falling amounts of substance.)

On to `CC(C)C[C@H](NC(=O)[C@H](CCCNC(=N)N)NC(=O)[C@H](Cc1c[nH]c2ccccc12)NC(=O)[C@H](CCCNC(=N)N)NC(=O)[C@@H](NC(=O)[C@H](CCCCN)NC(=O)[C@H](Cc1c[nH]c2ccccc12)NC(=O)[C@H](CCCNC(=N)N)NC(=O)[C@H](CC(C)C)NC(=O)[C@H](CCCNC(=N)N)NC(=O)[C@@H](N)Cc1c[nH]c2ccccc12)[C@@H](C)O)C(=O)N[C@@H](CCCCN)C(N)=O`, for which the Ratio is on record as 1.
